Reference: article PMC11863921 (BMC Biology, 2025)

Target: T1, AsolRXFP/LGR3 (Acanthaster planci, UniProt A0A8B7XXQ8)
T1 sequence (A0A8B7XXQ8 1-847): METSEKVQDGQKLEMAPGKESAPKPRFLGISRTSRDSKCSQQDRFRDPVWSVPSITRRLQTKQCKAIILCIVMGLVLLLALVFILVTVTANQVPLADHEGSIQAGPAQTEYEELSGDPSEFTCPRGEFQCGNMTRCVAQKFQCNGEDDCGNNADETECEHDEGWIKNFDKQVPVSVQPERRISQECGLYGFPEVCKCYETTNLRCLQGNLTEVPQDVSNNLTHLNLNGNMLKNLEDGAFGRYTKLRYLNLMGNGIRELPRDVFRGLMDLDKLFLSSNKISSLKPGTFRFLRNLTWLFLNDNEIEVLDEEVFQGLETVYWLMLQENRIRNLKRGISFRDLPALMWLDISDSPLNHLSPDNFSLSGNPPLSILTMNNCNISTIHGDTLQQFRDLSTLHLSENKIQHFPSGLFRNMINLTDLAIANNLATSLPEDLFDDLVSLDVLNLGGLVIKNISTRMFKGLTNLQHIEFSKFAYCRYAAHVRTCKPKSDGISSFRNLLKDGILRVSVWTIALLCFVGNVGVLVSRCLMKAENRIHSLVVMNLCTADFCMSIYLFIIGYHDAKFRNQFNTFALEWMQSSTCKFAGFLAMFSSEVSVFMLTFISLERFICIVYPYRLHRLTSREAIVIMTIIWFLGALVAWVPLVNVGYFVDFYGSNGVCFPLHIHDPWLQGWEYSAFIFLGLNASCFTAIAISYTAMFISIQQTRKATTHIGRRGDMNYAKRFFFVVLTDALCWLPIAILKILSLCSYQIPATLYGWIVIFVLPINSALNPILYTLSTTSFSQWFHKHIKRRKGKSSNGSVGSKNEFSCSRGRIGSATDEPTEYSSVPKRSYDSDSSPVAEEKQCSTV
Test: CRE reporter gene assay in CHO cells stably expressing AsolRXFP/LGR3
Type: cell-based, A. cf. solaris
Description: Human embryonic kidney (HEK) 293T cells were grown in complete Dulbecco’s modified Eagle medium (DMEM; Gibco) and Chinese hamster ovary (CHO) cells in complete DMEM/F12 (Gibco). Media was supplemented with 10% fetal bovine serum, 1% penicillin/streptomycin, and 1% L‐glutamine (complete media; All from Gibco). HEK-293T cells were transfected with LipofectAMINE 2000 (Invitrogen) and CHO cells with CHO TransIT and CHO-Mojo (Mirus), both according to the manufacturer’s instructions.
CHO and HEK293T cells stably expressing AsolRXFP/LGR3 were generated by lentiviral transduction. […] Transduced cells were sorted from non-transduced cells using the GFP reporter by fluorescence-activated cell sorting (FACS), using a Becton Dickinson FACSAria III as previously described. […]
The ability of the A. cf. solaris receptors to respond to A. cf. solaris RGP1 and RGP2 peptides was tested using a pCRE β-galactosidase reporter gene assay in CHO cells stably expressing AsolRXFP/LGR3 or HEK-293T cells transfected with AsolRXFP/LGR4 (long) or AsolRXFP/LGR4 (short), as described in detail previously. […] Plates were thawed for the development of β-galactosidase activity, as described previously, with absorbance being read at 570 nm on an Epoch 2 microplate reader. […]

| Substance | potency (pEC50) (Fig. 5 legend, pooled data of at least three assays in triplicate, mean, S.E.M.) | potency (pEC50) (CHO-AsolRXFP/LGR3 cells, pCRE β-galactosidase reporter, 6 h at 37 °C, three-parameter fit, n = 6) |
| --- | --- | --- |
| Acanthaster cf. solaris Relaxin-like gonad-stimulating peptide 1 [AsolRGP1] | 7.80 ± 0.18 | – |
| Acanthaster cf. solaris Relaxin-like gonad-stimulating peptide 2 [AsolRGP2] | – | Dose–response curves could not be fitted |
